Columns and labels:
[1] = tested on: HCC1954 cells; experiment: Cytotoxicity; format: cell-based; details: for ADC cytotoxic IC50 of T-PBD and T-CaliG compared with each other: after 6 days
[2] = tested on: HCC1954 (Ag+) and MDA-MB-468 (Ag−) co-culture; experiment: Bystander co-culture assay; format: cell-based; details: 6 days, varying % Ag+ cells

Substance | Cytotoxic IC50 of trastuzumab-payload conjugate (in words) ([1]; HCC1954 cells, 6 days) | Ag− cell bystander toxicity in co-culture (in words) ([2]; 50 pM ADC) | ADC cytotoxic IC50 of T-PBD and T-CaliG compared with each other [1] | Ag− cell bystander toxicity in co-culture (in words) ([2]; 500 pM ADC)
T-CaliD: trastuzumab conjugated to calicheamicin D | sub-picomolar | bystander cell death with as low as 25% Ag+ cells |  | 
T-CaliG: trastuzumab conjugated to calicheamicin G |  |  | roughly similar | 
T-PBD |  |  | roughly similar | bystander cell death with as low as 25% Ag+ cells
